Experimental data: ChEMBL document CHEMBL4184320, “Optimization of Selective Mitogen-Activated Protein Kinase Interacting Kinases 1 and 2 Inhibitors for the Treatment of Blast Crisis Leukemia” (J Med Chem, 2018)

The chains behind the UniProt entries cited, without tags or fusion partners. Where a name states a change or a piece, a line headed by the entry shows the natural chain unless it says otherwise.
UniProt Q9BUB5: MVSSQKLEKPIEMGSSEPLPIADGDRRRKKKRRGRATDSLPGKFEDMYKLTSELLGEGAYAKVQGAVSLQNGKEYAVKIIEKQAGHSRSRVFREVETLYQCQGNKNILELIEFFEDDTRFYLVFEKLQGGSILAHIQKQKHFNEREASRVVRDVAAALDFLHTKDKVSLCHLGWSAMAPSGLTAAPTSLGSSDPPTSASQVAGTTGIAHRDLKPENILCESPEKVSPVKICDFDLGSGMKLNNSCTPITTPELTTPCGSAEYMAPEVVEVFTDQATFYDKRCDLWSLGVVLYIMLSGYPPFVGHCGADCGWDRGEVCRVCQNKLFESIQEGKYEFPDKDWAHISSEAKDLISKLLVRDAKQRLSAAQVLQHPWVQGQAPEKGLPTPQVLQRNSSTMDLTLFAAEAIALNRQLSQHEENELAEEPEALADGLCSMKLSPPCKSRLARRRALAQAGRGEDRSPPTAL
UniProt Q9HBH9: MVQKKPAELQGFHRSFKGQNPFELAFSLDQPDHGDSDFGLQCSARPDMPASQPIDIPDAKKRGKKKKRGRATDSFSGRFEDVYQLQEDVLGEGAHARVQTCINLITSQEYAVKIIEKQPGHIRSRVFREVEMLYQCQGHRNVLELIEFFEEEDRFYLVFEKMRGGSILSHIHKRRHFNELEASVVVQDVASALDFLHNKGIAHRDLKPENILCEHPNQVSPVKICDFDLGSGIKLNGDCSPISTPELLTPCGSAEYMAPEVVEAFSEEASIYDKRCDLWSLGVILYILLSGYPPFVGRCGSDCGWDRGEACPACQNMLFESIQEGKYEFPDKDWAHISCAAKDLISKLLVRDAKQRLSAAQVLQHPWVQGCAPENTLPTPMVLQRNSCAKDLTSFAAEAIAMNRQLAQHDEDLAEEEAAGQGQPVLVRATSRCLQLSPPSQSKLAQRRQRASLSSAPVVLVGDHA

How the values were obtained:
[1] = target: MAP kinase-interacting serine/threonine-protein kinase 1 (Homo sapiens, UniProt Q9BUB5)
[2] = target: MAP kinase-interacting serine/threonine-protein kinase 2 (Homo sapiens, UniProt Q9HBH9)

CN1CCN(C(=O)c2ccc(-c3cn4c(-c5ccc(C#N)cc5)cnc4cn3)cc2)CC1
IC50 [1]: 499 nM | IC50 [2]: 502 nM
